Values quoted from earlier work, collected in patent US20150030540A1 (Eli Lilly and Company, priority 2008, published 2015).
pIC50: −log10 of the molar value.

Sequences of proteins named here, by UniProt entry; tags and fusion partners are left off. Residues count along the entry.
UniProt P05067, 672-713 limits assumed: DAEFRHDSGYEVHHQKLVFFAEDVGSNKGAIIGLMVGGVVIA

Biological target: T1, Aβ monomer (Homo sapiens, UniProt P05067)
T1 construct: Aβ monomer
Conditions: read-out: Binding Affinity IC50; cited from earlier work

## Cc1ccc2c(c1)sc(-c1ccc(N(C)C)cc1)[n+]2C [Thioflavin T]
  pIC50: < 3.30
